In patent publication US9169252B2 (BRISTOL-MYERS SQUIBB COMPANY, priority 2014, dated 2015):
Structures can show the parent of a compound that is named as a salt.

Protein sequences, listed by entry. Tags and fused reporters are not part of them.
UniProt Q9NWZ3, whole entry, species assumed: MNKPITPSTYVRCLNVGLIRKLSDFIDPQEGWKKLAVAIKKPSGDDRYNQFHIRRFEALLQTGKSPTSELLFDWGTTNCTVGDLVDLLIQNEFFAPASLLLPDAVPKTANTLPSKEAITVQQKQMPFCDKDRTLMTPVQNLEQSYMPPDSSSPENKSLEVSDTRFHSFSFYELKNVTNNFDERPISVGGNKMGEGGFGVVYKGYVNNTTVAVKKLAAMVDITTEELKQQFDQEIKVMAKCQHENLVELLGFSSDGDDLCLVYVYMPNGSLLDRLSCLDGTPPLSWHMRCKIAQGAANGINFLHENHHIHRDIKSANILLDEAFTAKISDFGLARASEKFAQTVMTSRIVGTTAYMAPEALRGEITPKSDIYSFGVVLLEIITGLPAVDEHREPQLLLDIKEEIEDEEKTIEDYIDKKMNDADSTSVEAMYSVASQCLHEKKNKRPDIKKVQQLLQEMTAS

Each molecule was assayed against IRAK4 (Homo sapiens (Human), UniProt Q9NWZ3) (assay: IRAK4 Inhibition Assay). Details: ATP 500 μM; IRAK4 0.6 nM.
Format: biochemical
Method: The assays were performed in U-bottom 384-well plates. […] The reaction was initiated by the combination of IRAK4 with substrates and test compounds. The reaction mixture was incubated at room temperature for 60 min. and terminated by adding 45 μL of 35 mM EDTA to each sample. The reaction mixture was analyzed on the Caliper LABCHIP® 3000 (Caliper, Hopkinton, Mass.) by electrophoretic separation of the fluorescent substrate and phosphorylated product.

IC50 | SMILES
17.4 nM | CC(C)(O)[C@H](F)CNC(=O)c1cnc(-n2ncc3cc(F)cnc32)cc1NC1CCC(O)C1 (mixture of isomers) [Example 611]
7.1 nM | CC(C)(O)[C@H](F)CNC(=O)c1cnc(-n2ccc3cc(C#N)cnc32)cc1N[C@@H]1COC[C@H]1F (single isomer, unassigned) [Example 458]
4.9 nM | CC(C)(O)[C@H](F)CNC(=O)c1cnc(-n2ccc3cc(C#N)cnc32)cc1N[C@@H]1COC[C@H]1F (single isomer, unassigned) [Example 459]
9.1 nM | CC(O)CCNc1cc(-n2ncc3cc(C#N)cnc32)ncc1C(=O)NC[C@@H](F)C(C)(C)O (single isomer, unassigned) [Example 572]
8.8 nM | CC(O)CCNc1cc(-n2ncc3cc(C#N)cnc32)ncc1C(=O)NC[C@@H](F)C(C)(C)O (single isomer, unassigned) [Example 573]
8.9 nM | CC(C)(O)[C@H](F)CNC(=O)c1cnc(-n2ncc3cc(F)cnc32)cc1NC1CCC(O)C1 (single isomer, unassigned) [Example 610]
10.5 nM | CC(C)(O)[C@H](F)CNC(=O)c1cnc(-n2ncc3cc(Cl)cnc32)cc1N[C@@H]1C[C@H]1CO (single isomer, unassigned) [Example 646]
1.6 nM | COC(C)(C)[C@H](F)CNC(=O)c1cnc(-n2ccc3cc(C#N)cnc32)cc1NC(C)C [Example 434]
1.5 nM | [2H]C([2H])([2H])OC(C)(C)[C@H](F)CNC(=O)c1cnc(-n2ccc3cc(C#N)cnc32)cc1NC(C)C [Example 442]
4.6 nM | CC(C)Nc1cc(-n2ccc3cc(C#N)cnc32)ncc1C(=O)NC1CCC(C(C)(O)C2CC2)CC1 (stereo not drawn) [Example 444]
3.9 nM | CC(C)Nc1cc(-n2ccc3cc(C#N)cnc32)ncc1C(=O)NC1CCC(C(C)(O)C2CC2)CC1 (stereo not drawn) [Example 446]
6.1 nM | CC(C)Nc1cc(-n2ccc3cc(CNC(=O)CC(C)(C)O)cnc32)ncc1C(=O)NC[C@@H](F)C(C)(C)O [Example 499]
8.7 nM | CC(C)(O)[C@H](F)CNC(=O)c1cnc(-n2ncc3cc(C#N)cnc32)cc1N[C@H]1CCOC1 [Example 545, 6-(5-Cyano-1H-pyrazolo[3,4-b]pyridin-1-yl)-N—((R)-2-fluoro-3-hydroxy-3-methylbutyl)-4-(((S)-tetrahydrofuran-3-yl)amino)nicotinamide, TFA salt]
10.6 nM | CC(C)(O)[C@H](F)CNC(=O)c1cnc(-n2ncc3cc(C#N)cnc32)cc1N[C@@H]1CCOC1 [Example 548]
2.8 nM | CCCNc1cc(-n2ncc3cc(C#N)cnc32)ncc1C(=O)NC[C@@H](F)C(C)(C)O [Example 592]
6.1 nM | CC(F)CCNc1cc(-n2ncc3cc(C#N)cnc32)ncc1C(=O)NC[C@@H](F)C(C)(C)O (stereo partly drawn) [Example 604]
1.1 nM | CC(C)(O)[C@H](F)CNC(=O)c1cnc(-n2ncc3cc(C#N)cnc32)cc1NC1CCC(F)C1 (stereo partly drawn) [Example 626]

Same assay, conditions: IRAK4 Inhibition Assay; ATP 500 μM

IC50 | SMILES
1.4 nM | CC(C)(O)[C@H](F)CNC(=O)c1cnc(-n2ccc3cc(C#N)cnc32)cc1NC1CCC(O)C1 (single isomer, unassigned) [Example 24]
1.5 nM | CC(C)(O)[C@H](F)CNC(=O)c1cnc(-n2ccc3cc(C#N)cnc32)cc1NC1CCC(O)C1 (single isomer, unassigned) [Example 25]
2.5 nM | CC(C)(O)[C@H](F)CNC(=O)c1cnc(-n2ccc3cc(C#N)cnc32)cc1NC1CCC(O)C1 (single isomer, unassigned) [Example 26]
1.6 nM | CC(C)(O)[C@H](F)CNC(=O)c1cnc(-n2ccc3cc(C#N)cnc32)cc1NC1CCC(O)C1 (single isomer, unassigned) [Example 27]
1.4 nM | CC(C)Nc1cc(-n2ccc3cc(C#N)cnc32)ncc1C(=O)NC[C@@H](F)C(C)O (single isomer, unassigned) [Example 48]
3.2 nM | CC(C)Nc1cc(-n2ccc3cc(C#N)cnc32)ncc1C(=O)NC[C@@H](F)C(C)O (single isomer, unassigned) [Example 49]
7.1 nM | CNC(=O)[C@H]1CC[C@H](NC(=O)c2cnc(-n3ccc4cc(C#N)cnc43)cc2NC2CCOCC2)CC1 [Example 86, 6-(5-cyano-1H-pyrrolo[2,3-b]pyridin-1-yl)-N-((trans)-4-(methylcarbamoyl)cyclohexyl)-4-((tetrahydro-2H-pyran-4-yl)amino)nicotinamide]
5.1 nM | CC(C)Nc1cc(-n2ccc3cc(C#N)cnc32)ncc1C(=O)N[C@H]1CC[C@H]([N+](=O)[O-])CC1 [Example 95, 6-(5-cyano-1H-pyrrolo[2,3-b]pyridin-1-yl)-4-(isopropylamino)-N-((trans)-4-nitrocyclohexyl)nicotinamide]
6.9 nM | CC(C)(O)[C@H](F)CNC(=O)c1cnc(-n2ncc3cncnc32)cc1NC1CC1 [Example 134, (R)-4-(cyclopropylamino)-N-(2-fluoro-3-hydroxy-3-methylbutyl)-6-(1H-pyrazolo[3,4-d]pyrimidin-1-yl)nicotinamide]
15.3 nM | CC(C)Nc1cc(-n2ncc3cc(C#N)cnc32)ncc1C(=O)NCC1CCS(=O)(=O)C1 (stereo not drawn) [Example 209]
6.2 nM | CC(C)Nc1cc(-n2ncc3cc(C#N)cnc32)ncc1C(=O)N[C@H]1CC[C@H](NC(=O)[C@H](C)O)CC1 [Example 274]
4.1 nM | CC(C)Nc1cc(-n2ncc3cc(Cl)c(N)nc32)ncc1C(=O)NC[C@@H](F)C(C)(C)O [Example 282]
4.1 nM | CC(Nc1cc(-n2ncc3cc(C#N)cnc32)ncc1C(=O)NC[C@@H](F)C(C)(C)O)C(F)(F)F (stereo partly drawn) [Example 297]
